Assay results: patent US5019574A, “3,4-diaminoquinoline and 3,4-diamino-5,6,7,8-tetrahydroquinoline compounds useful for improving psychoneural function” (Chugai Seiyaku Kabushiki Kaisha, priority 1988, dated 1991)

Test system: male rats (F344)
Test: Effect on performance in a radial-arm maze task (AF64AP-treated rats)
Format: in vivo
Conditions: 0.05 nmol injected into both lateral cerebral ventricles

Q: Which “memory impairment compared to the control group” value does the source give for `CC[N+]1(CCO)CC1` here?
A: significant memory impairment
